Biological target: T1, recombinant human GM-CSF (human, UniProt P04141 18-144)
T1 construct: also called rhGM-CSF; CSF2
Assay: SPR Biacore 3000, antibody captured by goat anti-human IgG, rhGM-CSF injected
Protocol: The kinetic binding analysis of anti-GM-CSF antibodies to recombinant human GM-CSF (rhGM-CSF) was determined by Surface plasmon resonance (SPR) using the Biacore 3000 instrument (GE Healthcare). Goat anti-human IgG (5 μg/mL) (SouthernBiotech) was stabilized in […] acetate buffer, pH 4.5, and immobilized on an EDC/NHS pre-activated carboxymethylated dextran 5 (CMS) sensor chip (GE Healthcare) through amine coupling kit (GE Healthcare). HBS-EP buffer (HBS; 10 […], 0.005% surfactant Tween-20, pH 7.4) (GE Healthcare) was used as running buffer. 1D2, AMG203 and MOR103 were respectively captured on the CMS sensor chip by goat anti-human IgG. CMS sensor chip coated only with goat anti-human IgG was used as reference chip. rhGM-CSF (Biolegend) was injected over the mAb-coated CMS sensor chip and reference chip at different concentrations. The flow rate was 30 μl/min. […] Injection time and dissociation time were 180 and 600 seconds. Data were fitted to a 1:1 model using the Biacore 3000 evaluation software. […] Antibody-binding kinetic rate constants (Ka and Kd), as well as the equilibrium dissociation constant (KD=Kd/Ka), are shown in Table 4. The 1D2 antibody has a lower KD value than that of AMG203 and MOR103, indicating 1D2 antibody has higher affinity to rhGM-CSF compared to AMG203 and MOR103.

Protein sequences, listed by entry. Tags and fused reporters are not part of them. Residues count along the entry.
UniProt P04141, 18-144 limits assumed: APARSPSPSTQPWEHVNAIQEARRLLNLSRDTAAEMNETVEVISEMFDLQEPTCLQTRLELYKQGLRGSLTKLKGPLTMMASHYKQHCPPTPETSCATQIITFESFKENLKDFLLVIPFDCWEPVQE

B1: MOR103 (otilimab) (antibody, V domains shown)
VH: QVQLVESGGGLVQPGGSLRLSCAASGFTFSSYWMNWVRQAPGKGLEWVSGIENKYAGGATYYAASVKGRFTISRDNSKNTLYLQMNSLRAEDTAVYYCARGFGTDFWGQGTLVTVSS
VL: DIELTQPPSVSVAPGQTARISCSGDSIGKKYAYWYQQKPGQAPVLVIYKKRPSGIPERFSGSNSGNTATLTISGTQAEDEADYYCSAWGDKGMVFGGGTKLTVL
Kd: 366 pM | koff: 6.19e-05 s⁻¹ | kon: 169000 M⁻¹ s⁻¹
